Experiment: Toremifene loaded silica-xerogel discs in vivo: implant remaining and 3H-toremifene activity
Design: species or system mice (C57B1)
Conditions: after 42 days, subcutaneous silica-xerogel disc, mice
Method: Sixty female mice (C57B1, Denmark) with the average weight of about 19.6 g (SD 1.2) were studied. The animals were divided into two experimental groups (5 mice in each group): a toremifene treated silica-xerogel group and untreated silica-xerogel group. The animals were treated for 7, 14, 21, 28, 35, and 42 days. The ^3H-toremifene dose was about 80 μCi/kg (0.8 μCi/implant); toremifene citrate, 350 mg/kg (appr. 3.4 mg/implant); and silica gel, about 1.53 g/kg body weight. A toremifene loaded silica-xerogel disc was implanted subcutaneously an each side of the backbone.
After a predetermined period of time the silica-xerogel discs on the left side of the backbone were explanted together with the surrounding tissue, fixed in 70% ethanol, and embedded in Technovit (Algol). Sections of 20 μm were stained with toluidine blue. Samples of liver, kidney, and lymph node were fixed in buffered formaldehyde (Merck) and embedded in paraffin. Sections of 6 μm were stained with hematoxylin eosin. All tissue samples were evaluated using light microscopy. […] Their weights were determined and the percentage of implant remaining at each point was calculated.
To determine the amount of toremifene remaining in the implants, the dried discs were dissolved in 0.1 N NaOH and the activity was measured in a liquid scintillation counter (model 81000, LKB-Wallac, Turku, Finland). […]

For ^3H-toremifene, the “amount remaining in the implant” value was “about 16%”.
